Chains of the proteins cited; added tags and fusions are not shown.
UniProt P19643, whole entry: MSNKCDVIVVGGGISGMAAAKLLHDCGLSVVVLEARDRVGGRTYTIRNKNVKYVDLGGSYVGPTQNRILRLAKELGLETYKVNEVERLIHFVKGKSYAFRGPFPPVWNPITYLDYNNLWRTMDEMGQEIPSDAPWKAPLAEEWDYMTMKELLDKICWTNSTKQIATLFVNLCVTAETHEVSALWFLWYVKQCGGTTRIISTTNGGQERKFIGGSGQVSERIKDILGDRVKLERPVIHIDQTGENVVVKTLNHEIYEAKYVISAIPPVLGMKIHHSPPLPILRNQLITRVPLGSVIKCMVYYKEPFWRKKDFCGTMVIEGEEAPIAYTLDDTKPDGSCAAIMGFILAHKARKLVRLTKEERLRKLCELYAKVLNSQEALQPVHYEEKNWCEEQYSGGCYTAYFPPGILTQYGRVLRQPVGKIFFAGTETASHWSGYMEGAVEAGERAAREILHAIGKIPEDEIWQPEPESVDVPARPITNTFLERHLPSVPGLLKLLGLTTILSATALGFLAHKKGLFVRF
UniProt Q9N1N9, whole entry: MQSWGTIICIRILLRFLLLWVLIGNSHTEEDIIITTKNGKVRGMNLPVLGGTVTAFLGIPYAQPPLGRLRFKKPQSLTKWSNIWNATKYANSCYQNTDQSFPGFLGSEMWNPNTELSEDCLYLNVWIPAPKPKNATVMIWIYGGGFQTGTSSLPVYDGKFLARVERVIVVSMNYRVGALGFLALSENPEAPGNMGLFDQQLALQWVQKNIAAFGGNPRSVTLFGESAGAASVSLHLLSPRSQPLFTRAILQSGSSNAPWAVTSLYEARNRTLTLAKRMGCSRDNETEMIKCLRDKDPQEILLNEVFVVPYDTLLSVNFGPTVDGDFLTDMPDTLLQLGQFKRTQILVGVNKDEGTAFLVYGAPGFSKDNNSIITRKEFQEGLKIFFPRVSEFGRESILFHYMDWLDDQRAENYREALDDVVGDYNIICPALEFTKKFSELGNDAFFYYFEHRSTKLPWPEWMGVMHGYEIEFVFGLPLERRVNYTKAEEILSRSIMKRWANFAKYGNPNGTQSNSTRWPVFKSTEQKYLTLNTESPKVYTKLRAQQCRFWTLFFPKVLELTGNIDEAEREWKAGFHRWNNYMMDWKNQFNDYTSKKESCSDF

According to ChEMBL document CHEMBL1135657, “Novel dual inhibitors of AChE and MAO derived from hydroxy aminoindan and phenethylamine as potential treatment for Alzheimer's disease” (J Med Chem, 2002):

Key:
[1] = target: Amine oxidase [flavin-containing] B (Rattus norvegicus, UniProt P19643); assay: In vitro inhibitory concentration against Monoamine oxidase B of rat brain homogenates; value ranges from 0.27-0.36; type: tissue-based
Butyrylcholinesterase = Butyrylcholinesterase (Equus caballus, UniProt Q9N1N9); assay: In vitro inhibitory concentration against Butyrylcholinesterase of horse serum; value ranges from 0.81-0.86

Compound `C#CCNC(C)Cc1ccccc1` (configuration not stated) has an IC50 [1] of 0.32 µM.
In the case of `CCN(C)C(=O)Oc1cccc([C@H](C)N(C)C)c1` [RIVASTIGMINE], the IC50 (Butyrylcholinesterase) is reported as 0.83 µM.
